# Assay results from publication PMC11247487, “Discovery of Dual MER/AXL Kinase Inhibitors as Bifunctional Small Molecules for Inhibiting Tumor Growth and Enhancing Tumor Immune Microenvironment” (Journal of Medicinal Chemistry, 2024).
# Legend:
# Ba/F3-MER cells = assay: Cell viability assay (MTS); format: cell-based; details: 72 h, read-out: Ba/F3-MER IC50
# [1] = test system: immune cells in tumor and spleen of MC38 tumor-bearing mice; assay: Immunophenotyping by flow cytometry; format: in vivo; details: 50 mg/kg orally BID, FOTO, 2 weeks
# Protocol: Tumor and spleen tissues from the control and treated animals were harvested 2 h after the last dose (day 11). […] tissues were carefully removed from the tumors followed by digestion with 0.1% collagenase III in DMEM medium for 30 min at 37 °C with agitation every 10 min. The digestion was terminated by adding 10% FBS containing PBS. The single-cell suspension was filtered through a 40 μm filter after red blood cell lysis. Aliquots of the cell suspension were preincubated with the mouse Fc receptor blocker for 10 min before staining with appropriate antimouse antibody conjugate for Cd45, Cd3, Cd4, Cd8, Cd11b, Cd86, F4/80, AXL, and MER (all antibody conjugates from BioLegend) at 4 °C for 30 min followed by two washes in 1% BSA containing buffer and analyzed by flow cytometry to quantify the accumulation of infiltrating immune cells into the tumor. For analysis of Cd206, the cells were fixed using the Cyto X/Cytoperm kit (BD Biosciences) after surface marker staining and then stained with antimouse Cd206 antibody.
# MER = molecular target: T1, MER (Homo sapiens, UniProt Q12866); assay: MER enzyme inhibition assay (in-house Kinase-Glo); format: biochemical
# T1 construct: A purified kinase (MER or AXL) was incubated with a compound or DMSO
# T1 sequence (Q12866 21-999): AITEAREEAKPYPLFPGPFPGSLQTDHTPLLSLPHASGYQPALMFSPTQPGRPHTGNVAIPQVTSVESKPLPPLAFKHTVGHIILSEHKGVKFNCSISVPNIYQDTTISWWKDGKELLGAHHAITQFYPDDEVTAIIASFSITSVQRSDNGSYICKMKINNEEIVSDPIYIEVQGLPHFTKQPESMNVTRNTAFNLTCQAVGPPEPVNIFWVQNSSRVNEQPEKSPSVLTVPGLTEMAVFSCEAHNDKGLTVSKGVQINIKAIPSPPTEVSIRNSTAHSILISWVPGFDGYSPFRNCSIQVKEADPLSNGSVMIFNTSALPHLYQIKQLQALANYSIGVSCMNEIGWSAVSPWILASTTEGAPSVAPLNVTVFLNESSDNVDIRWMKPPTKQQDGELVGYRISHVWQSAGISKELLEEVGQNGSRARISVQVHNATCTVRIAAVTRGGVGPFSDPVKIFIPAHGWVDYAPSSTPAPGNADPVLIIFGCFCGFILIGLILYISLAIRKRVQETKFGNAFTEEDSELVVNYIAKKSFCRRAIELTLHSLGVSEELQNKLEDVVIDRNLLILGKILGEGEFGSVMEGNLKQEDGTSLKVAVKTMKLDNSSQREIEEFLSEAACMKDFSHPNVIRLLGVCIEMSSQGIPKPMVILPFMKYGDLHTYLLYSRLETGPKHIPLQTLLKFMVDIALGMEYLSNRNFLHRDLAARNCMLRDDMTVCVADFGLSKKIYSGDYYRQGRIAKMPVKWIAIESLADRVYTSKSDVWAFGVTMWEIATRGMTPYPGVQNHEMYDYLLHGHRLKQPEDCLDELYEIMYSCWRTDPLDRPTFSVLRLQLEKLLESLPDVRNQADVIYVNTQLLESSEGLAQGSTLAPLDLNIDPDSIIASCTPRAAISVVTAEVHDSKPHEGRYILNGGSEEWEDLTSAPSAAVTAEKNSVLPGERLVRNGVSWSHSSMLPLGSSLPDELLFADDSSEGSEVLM
IC50 (MER),Compound,IC50 (Ba/F3-MER cells),percentage of intratumoral M1-like macrophages [1]
–,"CN(C)Cc1ccc(-c2c(-c3cnn(C)c3)oc3ncnc(Oc4ccc(NC(=O)c5cccn(-c6ccc(F)cc6)c5=O)cc4)c23)cc1 [Compound 39, N-{4-[(5-{4-[(Dimethylamino)methyl]phenyl}-6-(1-methyl-1H-pyrazol-4-yl)furo[2,3-d]pyrimidin-4-yl)oxy]phenyl}-1-(4-fluorophenyl)-2-oxo-1,2-dihydropyridine-3-carboxamide]",1.6 nM,–
–,"Cn1cc(-c2oc3ncnc(Oc4ccc(NC(=O)c5cccn(-c6ccc(F)cc6)c5=O)cc4)c3c2-c2cccc(N)c2)cn1 [Compound 22, N-(4-{[5-(3-Aminophenyl)-6-(1-methyl-1H-pyrazol-4-yl)furo[2,3-d]pyrimidin-4-yl]oxy}phenyl)-1-(4-fluorophenyl)-2-oxo-1,2-dihydropyridine-3-carboxamide]",4.5 nM,without altering
636 nM,"Nc1nc(Nc2ccc3c(c2)CC[C@@H](N2CCCC2)CC3)nn1-c1cc2c(nn1)-c1ccccc1CCC2 [Compound 3, Bemcentinib, reference compound]",–,–
